Here are results for 62 compounds from PubChem BioAssay AID504894 (National Center for Advancing Translational Sciences (NCATS), 2011).

Structures are written as SMILES. The list shows a part of the results, in another mix than the full data. Calls of active or inactive are those of the source. Calls follow the shape of the dose curve; as a rule, active = well fitted activation curve with a large enough effect; inconclusive = small, poorly fitted or top-dose-only effect, or another doubt; inactive = no such curve, though single readings can be large or run the other way.

This assay in a line: Activators of T cell receptors: qHTS campaign. Also: % of control where 0% means no effect. The conditions noted are these: primary human leukocytes, anti-CD3, IL-2 HTRF, 48 h; at 9.22 µM (top of the series) unless noted. An excerpt:
Normally activation of naive T cells requires two signals. 1. A signal through the T cell receptor (TCR) which provides antigen specificity to the response. 2. Signals through co-stimulatory molecules, which are necessary for proliferation, survival and cytokine production. In the absence of co-stimulatory signals T cells are not effectively activated, and may even be rendered anergic or unresponsive to subsequent signaling. This lack of costimulation has been shown in multiple model systems to be a major factor in the limited strength and effectiveness of anti-tumor T cell responses. The goal of this project is to identify small molecule compounds that will stimulate T cell activation in the presence of TCR signaling but in the absence of co-stimulatory signals, thereby allowing activation of naive T cells in the absence of co-stimulation. Identification of such compounds would have clear experimental and clinical applications in instances where desirable antigen-specific immune responses are not generated due to a lack of co-stimulation, for example in the generation of anti-tumor responses. In collaboration between the National Cancer Institute and NIH Chemical Genomics Center, a high-throughput amenable screen was developed to discover small molecules that co-stimulate and activate human T cell receptors. The screen will be carried out using a novel homogeneous time resolved fluorescence energy transfer (HTRF) assay to measure production of the cytokine IL-2 by activated T cells and will be tested against the NIH Molecular Libraries Small Molecule Repository (MLSMR). NIH Chemical Genomics Center [NCGC] NIH Molecular Libraries Probe Centers Network [MLPCN] MLPCN Grant: MH090820-01 Assay Submitter (PI): Richard Hodes, National Cancer Institute, NIH
Primary human leukocytes are incubated with a-CD3 beads and compounds for 48 hr. The amount of secreted IL-2 is then assayed with a HTRF IL-2 kit. The presence of IL-2 cytokine captures the detection reagents and brings the a-IL-2-K and a-IL-2-d2 into close proximity. Upon excitation with 320nm light, the europium cryptate is capable of transferring energy to acceptor molecules within close proximity, resulting in acceptor molecule emission at 665nm.
Regarding `CC(C)c1ccc(OP(=O)(Nc2ccccn2)Oc2ccccc2F)cc1` (configuration not stated), the activation of IL-2 secretion is inactive: -2.7%. Turning to `COC(=O)C1(C)COP(=O)(N2CCCCCC2)OC1` (configuration not stated), the activation of IL-2 secretion is inactive: -1.78%. To `ClCCSc1nnc(-c2cccnc2)o1` belongs inactive: -7.62% [at 46.1 µM]; to `CCCCOc1ccc(C(=O)NCC2(N3CCCCC3)CCCCC2)cc1OC`, inactive: 3.99%. In the case of `Cc1cc(SC(NC(=O)c2ccccc2)C(Cl)(Cl)Cl)nc(C(C)C)n1` (configuration not stated) it was inactive: 0.895% [at 46.1 µM]. For `CC1CCNP(=O)(N(CCCl)CCCl)O1` (configuration not stated), the activation of IL-2 secretion is inactive: -2.37%. In the case of `CCOC(=O)Nc1ccc([As](=O)(O)O)c(O)c1` it was inactive: -2.1%. `O=[N+]([O-])c1ccc(Nc2ccc(Oc3ccc([N+](=O)[O-])cc3[N+](=O)[O-])cc2)c([N+](=O)[O-])c1`: the activation of IL-2 secretion is inactive: 1.41%. In the case of `Cc1cc(SC(NC=O)C(Cl)(Cl)Cl)ncn1` (configuration not stated) it was inactive: 2.26%; in that of `O=P(Nc1ccccn1)(c1cccc2ccccc12)c1cccc2ccccc12`, inactive: 5.57%. For `CCOC(=O)Nc1cccc([As](=O)(O)O)c1`, the activation of IL-2 secretion is inactive: -6.52%.

Consider `O=C(COc1ccccc1)OC1CN2CCC1CC2` (configuration not stated), for which the activation of IL-2 secretion was inactive: -6.3%.

`O=C(Nc1ccncc1[N+](=O)[O-])c1ccc([N+](=O)[O-])cc1[N+](=O)[O-]`: the activation of IL-2 secretion was inactive: -2.28%. In the case of `COP1(=S)c2c(C)nn(CCC#N)c2N=C(c2ccc(F)cc2)N1C` (configuration not stated), the activation of IL-2 secretion is inactive: -8.71%.

As for `CCC(C)N(CC(C)C)C(=S)SC(NC(C)=O)C(Cl)(Cl)Cl` (configuration not stated), the activation of IL-2 secretion was inactive: -0.717% [at 46.1 µM]. To `CCOC(=O)c1ccc(NC(=O)C(C)(CCl)SC)cc1` (configuration not stated) belongs inactive: -9.51%. On to `O=C(OC1CN2CCC1CC2)c1cccc([N+](=O)[O-])c1` (configuration not stated), for which the activation of IL-2 secretion is inactive: 6.51%. In the case of `Clc1n[nH]nc1-c1nn[nH][15n]1` it was inactive: 4.43%; in that of `CC(C)(C)C(=O)NC(Sc1ncccn1)C(Cl)(Cl)Cl` (configuration not stated), inactive: 2.23%. In the case of `CN(CCCl)Cc1cc(Cl)c(NC2=NCCN2)c(Cl)c1` it was inactive: -6.03%. In the case of `CCOP(=O)(Nc1ccc(C)cn1)OCC` it was inactive: -6.61%. Take `CCC1=CC2Cc3nc4ccc(Cl)cc4c(N)c3C(C1)C2` (configuration not stated): the activation of IL-2 secretion was inactive: -2.06%.

For `O=P1(Nc2ccccn2)COc2ccccc2OC1`, the activation of IL-2 secretion was inactive: 21.3%.

In the case of `CCOP(=O)(NC(=NC(C)c1ccccc1)NC(C)c1ccccc1)OCC` (configuration not stated), the activation of IL-2 secretion is inactive: -5.8%. As for `CC1(CBr)Cn2c(nc3ccccc3c2=O)S1` (configuration not stated), the activation of IL-2 secretion was inactive: 0.414%. In the case of `CN(C(=O)Cc1ccc(Cl)c(Cl)c1)[C@@H]1CCCC[C@H]1N1CCCC1` it was inactive: -13.8%. In the case of `CC(C)/C=N\N=C(\N)N[N+](=O)[O-]`, the activation of IL-2 secretion is inactive: -12%. In the case of `COc1ccccc1CNC(=O)COC(=O)C(O)(c1ccccc1)c1ccccc1` it was inactive: 3.55%; in that of `O=C(/C=C/c1ccccc1)OC1CN2CCC1CC2` (configuration not stated), inactive: -1.21%; in that of `CCCC1OP(=O)(Nc2ccccc2)OCC1CC` (configuration not stated), inactive: 4.2%. Take `Cc1nn(-c2ccccc2)c2c1P(=O)(N1CCOCC1)N(C)C(c1ccccc1)=N2` (configuration not stated): the activation of IL-2 secretion is inactive: -4%. To `Cc1ccc(C(=O)OC2CN3CCC2CC3)cc1` (configuration not stated) belongs inactive: 2.33%; to `CC1CCC(C(C)C)C(OP(=O)(Nc2ccccn2)c2ccccc2)C1` (configuration not stated), inactive: -1.98%. With `NS(=O)(=O)c1cccc(NC(=O)COC(=O)C(O)(c2ccccc2)c2ccccc2)c1`, the activation of IL-2 secretion was inactive: -1.5%.

As for `O=P1(Nc2ccc(Br)cn2)COc2ccccc2OC1`, the activation of IL-2 secretion was inactive: 0.117%.

For `O=[As](O)(c1cccs1)c1cccs1`, the activation of IL-2 secretion is inactive: 5.21%. Consider `Cc1ccc(OCC(=O)OC2CN3CCC2CC3)cc1` (configuration not stated), for which the activation of IL-2 secretion is inactive: 4.18%. With `Nc1cccc([As](=O)(O)c2ccccc2)c1`, the activation of IL-2 secretion is inactive: -3.7%.

For `O=P1(Nc2ncccn2)COc2ccccc2OC1`, the activation of IL-2 secretion was inactive: -1.97%. For `O=C(O)COc1ccc([As](=O)(O)O)cc1[N+](=O)[O-]`, the activation of IL-2 secretion is inactive: -2.62%. As to `Nc1ccccc1[As](=O)(O)c1ccccc1`, the activation of IL-2 secretion was inactive: 1.35%. In the case of `CS(=O)(=O)c1cc([N+](=O)[O-])c2no[n+]([O-])c2c1`, the activation of IL-2 secretion is inactive: 4.19%. With `CCOP1(=S)c2c(C)nn(CCC#N)c2N=C(c2ccccc2F)N1C` (configuration not stated), the activation of IL-2 secretion was inactive: 4.46%. Take `O=P(Nc1nccs1)(c1ccccc1)c1nc2ccccc2s1` (configuration not stated): the activation of IL-2 secretion was inactive: 5.18%.

For the compound `O=P(Nc1nccs1)(Oc1ccccc1)Oc1ccccc1`, the activation of IL-2 secretion was inactive: -8.59%.

`CN(C)C(=O)c1cc([N+](=O)[O-])cc2c1-c1c(cc([N+](=O)[O-])cc1[N+](=O)[O-])C2=O`: the activation of IL-2 secretion was inactive: 10.8%. In the case of `CN(C(=O)Cc1ccc(Cl)c(Cl)c1)[C@H]1CC[C@@]2(CCCO2)C[C@@H]1N1CCCC1` it was inactive: 0.521%.

With `N#CCCN(C(=O)COC(=O)C(O)(c1ccccc1)c1ccccc1)c1ccc(F)cc1`, the activation of IL-2 secretion was inactive: 7.9%. As to `CCOP1(=S)c2c(C)nn(CCC#N)c2N=C(c2ccc(F)cc2)N1C` (configuration not stated), the activation of IL-2 secretion is inactive: -13%. In the case of `CN(C(=O)Cc1ccccc1)[C@@H]1CC[C@]2(CCCO2)C[C@H]1N1CCCC1` it was inactive: 1.85%; in that of `NC(=O)Nc1ccc([As](=O)(O)O)cc1`, inactive: 2.57%. To `O=[As](O)(c1cccc(O)c1)c1cccc(O)c1` belongs inactive: 1.65%; to `Cc1cccc(OCC(=O)OC2CN3CCC2CC3)c1` (configuration not stated), inactive: 0.343%; to `COc1cc(C(=O)NCC2(N3CCOCC3)CCCCC2)cc(Cl)c1OC(C)C`, inactive: 1.85%.

With `O=[As](O)(O)c1cccnc1`, the activation of IL-2 secretion was inactive: -0.0726%. To `CS(=O)(=O)c1ccc(Cl)c(NC(=O)COC(=O)C(O)(c2ccccc2)c2ccccc2)c1` belongs inactive: -1.18%. In the case of `O=C(OC1CN2CCC1CC2)c1ccc(Cl)cc1` (configuration not stated) it was inactive: 0.63%. In the case of `COc1cc(C2NCCC3(OCCO3)C2(C)C)cc(OC)c1OC` (configuration not stated) it was inactive: -5.66% [at 46.1 µM]. Turning to `CCOP(=O)(Nc1cccc2ccccc12)OCC`, the activation of IL-2 secretion is inactive: 0.316% [at 46.1 µM]. To `CCCOP(=S)(Nc1nc(N)cc(=O)[nH]1)OCCC` belongs inactive: -0.567%; to `Nc1cccc2c([As](=O)(O)O)cccc12`, inactive: -5.68%; to `Cc1ccc(NCCc2c([N+](=O)[O-])cc([N+](=O)[O-])cc2[N+](=O)[O-])cc1`, inactive: 6.72% [at 46.1 µM].
